Laboratory results published in patent publication US12285524B2, “Sustained-release pharmaceutical compositions comprising an antipsychotic drug and uses thereof” (priority 2018, dated 2025).
Where two headings read alike, the source gives them in different places.

What was measured:
in vivo = details: female, Sprague-Dawley, rat, sc, 10 mg/kg
Experimental: The rats were housed in a holding room which operated on a 12-hr light/12-hr dark circadian cycle with free access to water and food.
Plasma samples were obtained by centrifugation, kept frozen at −80° C. and analyzed using a noncompartmental analysis model in PKSolver (Comput Methods Programs Biomed. 2010; 99(3):306-314).

[1] = oral administered; literature (Drug Deliv. 2015; 22(8):1059-1070); cited from earlier work

**Q.** Which half-life (in vivo) does the source give for `Cc1nc2n(c(=O)c1CCN1CCC(c3noc4cc(F)ccc34)CC1)CCCC2` [Risperidone, risperidone] here?
**A.** Its half-life is 1.09 h.

**Q.** What about the half-life [1] of the same compound?
**A.** The half-life was 5.9 h.
